Test results reported in publication PMC8286815 (Biochemical Journal, 2021).

Target: T1, SARS-CoV-2 RdRp (nsp12/nsp7/nsp8) (Severe acute respiratory syndrome coronavirus 2, UniProt P0DTD1)
T1 construct: added initiator Met before nsp12 (N); made in house; host or cells: Sf9 insect cells (Spodoptera frugiperda), baculovirus
Assay: Gel-based polymerisation (primer-extension) assay
Format: biochemical

O=C1C(=O)N(Cc2ccc(Cl)c(Cl)c2)c2ccccc21 [MDK-83190]
Inhibition of RNA duplex formation: partial inhibition
